From patent US11013730B1, “Composition comprising selenazol or thiazalone derivatives and silver and method of treatment therewith” (Thioredoxin Systems AB, priority 2014, dated 2021)

Tested on: E. coli mutants gshA^−, trxA^−trxB^−trxC^−

Row | SMILES | sensitivity of mutants to combination treatment (ebselen and silver, gshA^− and trxA^− trxB^− trxC^− mutants) | silver concentration that inhibited bacterial growth (gshA^− mutant, in the presence of 4 μM of ebselen) | sensitivity of mutants compared to wild type E. coli (silver alone, gshA^− and trxA^−trxB^−trxC^−)
1 | O=c1c2ccccc2[se]n1-c1ccccc1 [EbSe 6, 2-phenyl-1,2-benzisoselenazol-3(2H)-one] | more sensitive | – | –
2 | O=[N+]([O-])[O-].[Ag+] [silver, Silver nitrate] | – | less than 1 μM | did not exhibit a great difference
